Values quoted from earlier work, collected in patent US20070101461A1, “Method for Improving Phytoremediation Treatment of a Contaminated Medium” (priority 2001, published 2007).

Test system: plant
Conditions: cited from earlier work

Substance: Amino-dinitrotoluene
- Fate in plant (toxic, build up, or volatile): Rather persistent,
